# PABP FP inh: PABP-poly(A) binding inhibition; hit rate 1% among 290,000; PABP-poly(A) RNA binding, fluorescence polarization; AID 2014; P11940; calls only at 35 µM;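 also: calls also rest on retests at 20 µM and on dose response follow-up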
# PABP1 MLLE inh: blocks PAM2 peptide binding to the PABP1 MLLE domain. P11940. GST-MLLE / FITC-PAM2 fluorescence polarization. inhibition, % at 20 µM. hit rate 0.36% among 360,000. AID 588489; in the data active = inhibition above about 35%, passing the limit was not always enough;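 also: plate controls were DMSO wells with GST-MLLE for no effect and wells lacking GST-MLLE protein for full effect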
# eIF4H FP inh: inhibitors of RNA binding by human eIF4H | Q15056 | eIF4H fluorescence polarization binding assay | inhibition, % at 35 µM | hit rate 0.94% among 290,000 | AID 2012;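 also: calls also rest on retests at 20 µM and on dose response follow-up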
# UUG fidelity: alters start codon recognition fidelity in yeast; AID 602363; activity score, % at 18.7 µM; 350,000 tested, 0.13% active; S. cerevisiae UUG-firefly luciferase reporter, luminescence/redox ratio;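 active means replicate mean at a twofold rise or more, about +100% in these data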;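 further: firefly luciferase made from a UUG start codon reports start codon fidelity; reporter light over untreated wells divided by growth signal over untreated wells; some hits fall short of that in this replicate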
# DSG3 Ab inh: human desmoglein-3 autoantibody binding inhibition. DSG3-coupled beads, scFv-anti-DSG3-GFP binding, flow cytometry; stronger effect = lower value. P32926. AID 588358. hit rate 0.48% among 310,000. binding (percent of control), % at 10 µM;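 active = binding more than 3 SD below its plate's average and above zero; inconclusive = below that plate limit but binding exactly zero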;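 also: hits lower antibody fragment binding to DSG3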
# Active calls of the source: *; i = inactive; ? = inconclusive; . = no result; + = active, no number. Hits are enriched below; roughly 1.5% of the tested compounds scored in any of these assays. Unless noted, no rule for the calls is given here.
# Each structure is followed by: PABP FP inh, PABP1 MLLE inh, eIF4H FP inh, UUG fidelity, DSG3 Ab inh
- Cc1ccc(-c2c(C)c(-c3ccc(F)cc3)nc(N)c2C#N)o1
    +, 1, 76*, -19, 98
- Cc1noc(C)c1NC(=O)N(C)C[C@@H]1OCCCC[C@@H](C)Oc2ccc(NC(=O)C3CCCCC3)cc2C(=O)N([C@@H](C)CO)C[C@@H]1C
    ., ., ., -1, .
- CNC[C@@H]1Oc2c(NS(=O)(=O)c3ccc(F)cc3)cccc2C(=O)N([C@@H](C)CO)C[C@H]1C
    ., ., ., 0, .
- Cc1ccc(OCCC(=O)O)cc1
    +, 1, ?, -9, 103
- Cc1cc(C)cc(OCCCC(=O)O)c1
    i, 9, -4, 0, 97
- CO[C@H]1CN(C)C(=O)c2cc(NC(C)=O)ccc2OC[C@@H](C)N(C(=O)C2CC2)C[C@@H]1C
    ., ., ., -4, .
- O=C(Nc1cccnc1)c1cccs1
    i, 0, -12, -13, 99
- O=C(Nc1ccc2c(c1)oc1ccc(S(=O)(=O)N3CCCC3)cc12)C1CC1
    i, -3, 1, 5, 71*
- O=C(NC(=S)Nc1ccc(S(=O)(=O)N2CCCC2)cc1)c1cccs1
    i, 47*, 6, -14, 83
- Cc1ccc(S(=O)(=O)N2CCC(C(=O)Nc3ccc4c(c3)OCO4)CC2)cc1
    i, -9, -3, -8, 103
- O=C(Nc1ccc2c(c1)OCO2)C1CCN(c2ccc(S(=O)(=O)N3CCOCC3)cc2)CC1
    i, -18, -10, 5, 66*
- O=C(NC(=S)Nc1cccnc1)c1cccs1
    i, 39*, 4, -2, 109
- C[C@H](CO)N1C[C@H](C)[C@H](CN(C)Cc2ccc(C(=O)O)cc2)Oc2ccc(NC(=O)Nc3ccc4c(c3)OCO4)cc2C1=O
    ., ., ., 14, .
- COCC(=O)N1[C@H](CO)[C@H](c2ccc(C#Cc3ccccc3F)cc2)[C@@H]1C#N
    ., ., ., 13, .
- O=C(NC(=S)Nc1ccc(S(=O)(=O)N2CCCC2)cc1)C1CCC1
    i, 23, 2, ., 100
- O=C(NC(=S)Nc1ccc(S(=O)(=O)N2CCCC2)cc1)C1CC1
    +, 14, -8, ., 99
- CCCCC1=CC2=C(c3ccco3)C(=O)C(C)(OC(=O)c3ccc(OC)cc3)C(=O)C2=CN1Cc1ccccc1 (configuration not stated)
    +, 4, 68, -2, 102
- COc1cc(/C=N/NC(=O)CSc2n[nH]c(=O)[nH]c2=O)cc(OC)c1O
    +, 6, 13, ., 102
- CCN(CC)C(=O)CSc1nnc2nnc3cc(C)ccc3n12
    ?, 40*, ?, -10, 110
- CCN(CC)C(=O)CSc1nnc2nnc3cc(Cl)ccc3n12
    ?, 67*, ?, -4, 109
- CC(=O)c1ccc(NC(=O)C(C)OC(=O)COc2ccc(C#N)cc2)cc1 (configuration not stated)
    +, 5, active, ., 100
- CC(=O)c1ccc(OCC(=O)OC(C)C(=O)NC2CCCCC2)cc1 (configuration not stated)
    ., 4, ., -21, .
- C=C(C)C(=O)Nc1ccc2c(c1)OCCOCCOCCO2
    +, 1, 90*, 5, 90
- CN1CCN(C(=O)C[C@@H]2CC[C@@H]3[C@H](COC[C@@H](O)CN3CC3CCCCC3)O2)CC1
    ., ., ., -3, .
- COC(=O)CSC1=C(C#N)C(=O)NC(c2ccccc2)S1 (configuration not stated)
    i, 42*, -5, -18, .
- CSC1=C(C#N)C(=O)NC(c2ccccc2O)S1 (configuration not stated)
    i, 31, 1, ., .
- OC[C@H]1[C@H]2c3ccccc3NC[C@H]2N1CC1CCOCC1
    ., ., ., -17, .
- Cn1c(SCc2cccc(F)c2)nnc1-c1cnccn1
    i, -12, -2, -9, 77*
- CCN(CC)CCCN1C(=O)C(O)=C(C(=O)c2ccc(C)o2)C1c1ccc(C)o1 (configuration not stated)
    +, 0, 18, -4, 104
- O=C1C2C3C=CC(C3)C2C(=O)N1c1cccc2cccnc12 (configuration not stated)
    i, 6, 9, -24, .

# (list continues)
# Each structure is followed by: PABP FP inh, PABP1 MLLE inh, eIF4H FP inh, UUG fidelity, DSG3 Ab inh
- O=C1c2ccccc2C(=O)N1c1cccc2cccnc12
    i, 11, 64*, ., 134
- C[C@H](CO)N1C[C@H](C)[C@H](CN(C)CC2CCCCC2)Oc2c(NC(=O)C3CC3)cccc2C1=O
    ., ., ., -12, .
- S=C(NC1CCCCC1)NN1CCCCCC1
    ., -33, ., ., 103
- CN1CCN(NC(=S)NC2CCCCC2)CC1
    +, -12, 87*, ., 127

# Complete entries from above:
# Record of S=C(NC1CCCCC1)NN1CCCCCC1 = PABP FP inh: .; PABP1 MLLE inh: -33; eIF4H FP inh: .; UUG fidelity: .; DSG3 Ab inh: 103
# Record of C[C@H](CO)N1C[C@H](C)[C@H](CN(C)CC2CCCCC2)Oc2c(NC(=O)C3CC3)cccc2C1=O = PABP FP inh: .; PABP1 MLLE inh: .; eIF4H FP inh: .; UUG fidelity: -12; DSG3 Ab inh: .

# Screening results as filed in PubChem.
